Values of other authors as cited in patent US20050176623A1, “Non-invasive treatment of disease using amphipathic compounds” (priority 2004, published 2005).

Settings: metered dose inhaler

insulin
amount delivered into the serum per inhaled breath: 15 mg
